Assay results taken from paper PMC9609429, “HBK-10, A Compound with α1-Adrenolytic Properties, Showed Antiarrhythmic and Hypotensive Effects in Rats” (Pharmaceuticals, 2022).

Target: α2-adrenoceptor
Test: α2-adrenoceptor radioligand binding assay ([3H]-clonidine, rat cerebral cortex)
Conditions: rat cortex tissue
Method: The α1-, α2-, and β1-adrenoceptor radioligand binding assay was carried out on the rat cerebral cortex. [^3H]-prazosin (19.5 Ci/mmol, α1-adrenoceptor), [^3H]-clonidine (70.5 Ci/mmol, α2-adrenoceptor), and [^3H]-CGP-12177 (48 Ci/mmol, β1-adrenergic receptor) were used as specific ligands. The brains were homogenized using ULTRA-TURRAX homogenizer in 10 mL of an ice-cold 50 mM Tris–HCl buffer (pH 7.6). Homogenates were centrifuged at 20,000× g for 20 min (0–4 °C). Next, the cell pellet was resuspended in the Tris–HCl buffer and centrifuged again. Radioligand binding assays were performed in plates (MultiScreen/Millipore). The final incubation mixture (volume 300 μL) consisted of 240 μL of the tissue suspension, 30 μL of radioligand solution, and 30 μL of the buffer containing 7–8 concentrations of the tested compound. In order to measure the unspecific binding, 10 μM phentolamine (for [^3H]-prazosin) or 10 μM clonidine (for [^3H]-clonidine) or 1 μM of propranolol (in the case of [^3H]-CGP-12177) were used. The incubation was terminated by rapid filtration through Whatman GF/C filters using a vacuum manifold (Millipore). The filters were then washed twice with the assay buffer and placed in scintillation vials with a liquid scintillation cocktail. Radioactivity was measured in a WALLAC 1409 DSA liquid scintillation counter (Perkin Elmer, Waltham, MA, USA). […]

Clc1cccc(Cl)c1N=C1NCCN1 [Clonidine, clonidine, reference compound]
Adrenergic Receptors—pKi α2: 8.60
